Laboratory results from patent US7211395 (dated 2007).
Values belong to the binder of their own block, whether it stands above or below them.

Assays:
[1] = biological target: T1, human serum albumin (HSA) (human, UniProt P02768); test: FP
[2] = biological target: T1, human serum albumin (HSA); test: FP, pH 6.2, 0.14 M NaCl
[3] = biological target: T1, human serum albumin (HSA); test: FP, pH 7.4, 0.14 M NaCl
[4] = biological target: T1, human serum albumin (HSA); test: FP, pH 6.2, no NaCl
[5] = biological target: T1, human serum albumin (HSA); test: FP, pH 7.4, 0.14 M NaCl, 0.1% caprylate
[6] = biological target: T1, human serum albumin (HSA); test: FP, PBS

Binder: AEGTGDFWFCDRIAWYPQHLCEFLGGGK (disulfide cyclic, N-acetyl, C-amide) [DX-236 truncation SEQ 41]
Kd [1]: 9.9 µM

Binder: CDRIAWYPQHLCGGGK (disulfide cyclic, N-acetyl, C-amide) [DX-236 truncation SEQ 43]
Kd [1]: 16 µM

Now from value to binder:

Kd [2]: 61 µM
Kd [3]: 79 µM
Kd [4]: 4.8 µM
Kd [5]: 110 µM
Binder: AEGTGSFRNCEPWMLRFGCNPRAPEGGGK (disulfide cyclic, N-acetyl, C-amide, fluorescein on Lys) [DX-238]

Kd [6]: 12 µM
Binder: GDNRECVTMWPFEQIFCPWPDPGGGK (disulfide cyclic, N-acetyl, C-amide, fluorescein) [DX-999]
